Experimental findings from ChEMBL document CHEMBL1629679, “Extended-spectrum cephalosporinases in Pseudomonas aeruginosa” (2009) are described below.

Assay [1] has as its system Pseudomonas aeruginosa. Nature of the assay: Ratio of Kcat to Km for Pseudomonas aeruginosa PDC-3 by spectrophotometer.
Assay [2] concerns Pseudomonas aeruginosa. Nature of the assay: Ratio of Kcat to Km for Pseudomonas aeruginosa PDC-2 by spectrophotometer.
Assay [3] concerns Pseudomonas aeruginosa. Nature of the assay: Activity at Pseudomonas aeruginosa PDC-3 by spectrophotometer.
Assay [4] relates to Pseudomonas aeruginosa. Nature of the assay: Activity at Pseudomonas aeruginosa PDC-2 by spectrophotometer.

Structures are written as SMILES.

By kcat/Km is commonly meant the second-order rate constant that governs catalysis at low substrate concentration. One may read the Km as the substrate concentration at which the rate is half of its maximum. What is called kcat is the maximal rate divided by the concentration of active sites. For `CO[C@@]1(NC(=O)Cc2cccs2)C(=O)N2C(C(=O)O)=C(COC(N)=O)CS[C@@H]21`, the kcat/Km with Pseudomonas aeruginosa [1] came out at 200000 M⁻¹ s⁻¹; with Pseudomonas aeruginosa [2], 160000 M⁻¹ s⁻¹. The Km with Pseudomonas aeruginosa [3] and in the assay with Pseudomonas aeruginosa [4] was 0.5 µM throughout. In addition, the kcat in the assay on Pseudomonas aeruginosa [3] was 0.5 s⁻¹; with Pseudomonas aeruginosa [4] it was 0.08 s⁻¹.
As for `CC(=O)OCC1=C(C(=O)O)N2C(=O)[C@@H](NC(=O)Cc3cccs3)[C@H]2SC1`, the kcat/Km in the assay with Pseudomonas aeruginosa [1] turned out to be 2.75e+06 M⁻¹ s⁻¹; in the assay on Pseudomonas aeruginosa [2], 2.2e+06 M⁻¹ s⁻¹. Also, the results for the Km with Pseudomonas aeruginosa [3] and in the assay on Pseudomonas aeruginosa [4] were 45 µM and 50 µM, respectively. In addition, the turnover number (kcat) in the assay on Pseudomonas aeruginosa [3] stood at 120 s⁻¹; in the assay on Pseudomonas aeruginosa [4], 110 s⁻¹.
Turning to `CC1(C)S[C@@H]2[C@H](NC(=O)[C@H](N)c3ccc(O)cc3)C(=O)N2[C@H]1C(=O)O`, the kcat/Km with Pseudomonas aeruginosa [1] was determined as 100000 M⁻¹ s⁻¹; with Pseudomonas aeruginosa [2] it was 70000 M⁻¹ s⁻¹. For the same compound, the Km came to 25 µM in the assay with Pseudomonas aeruginosa [3] and 30 µM in the assay on Pseudomonas aeruginosa [4]. Besides, the kcat was determined as 2.5 s⁻¹ in the assay with Pseudomonas aeruginosa [3] and 2 s⁻¹ in the assay on Pseudomonas aeruginosa [4].
